Values quoted from earlier work in patent publication US6887842B1, “Modulating a pharmacokinetic property of a drug by administering a bifunctional molecule containing the drug” (The Board of Trustees of the Leland Stanford Junior …, priority 1999, dated 2005).

Conditions: in vivo

## fluorostatin
  hepatic first-pass clearance: extensive hepatic first-pass clearance
